Measurements published in US9486502B2, “Methods of administering interferon gamma to absorb fluid from the subretinal space” (The United States of America, as represented by the …, priority 2008, dated 2016).

System: hfRPE cells
Assay: BrdU incorporation assay, hfRPE proliferation
Type: cell-based, human
Settings: data not shown
Method: BrdU incorporation was performed as described in Li, R. et al., 2007, Invest Ophthalmol Vis Sci, 48, 5722-5732, incorporated by reference in its entirety herein. IFNγ, TNFα, and IL-1β were obtained from Peprotech, Rocky Hill, N.J., and Universal Type I Interferon (cat: 11200-1) or human interferon beta la were from PBL biomedical laboratories (New Brunswick, N.J.). Cumulative effects were measured by adding VEGF165, EGF and bFGF (Peprotech), and PDGF-BB (R & D Systems) with IFNγ. Anti-human IFNγ R1 blocking antibody (R & D Systems, Minneapolis, Minn.), JAK inhibitor I, AG490, or JAK3 inhibitor II (EMD Biosciences, Gibbstown, N.J.) was added to the cells one hour prior to the addition of IFNγ. SFM was used as the negative control and SFM supplemented with 5% serum was used as positive control. After treatment for 48 hours, RPE cells were incubated with BrdU for 24 hours. The proliferation rate was evaluated using a Cell proliferation ELISA BrdU Kit (Roche, Ind.). Quadruplicate wells were used for each condition and the experiments were repeated at least two times using cell cultures from different donors. Cell viability was evaluated using a Live/Dead Viability/Cytotoxicity Kit (Invitrogen).

B1: IFNβ: type I IFN (protein, UniProt P01574 22-187, looked up)
Interferon beta: MSYNLLGFLQRSSNFQCQKLLWQLNGRLEYCLKDRMNFDIPEEIKQLQQFQKEDAALTIYEMLQNIFAIFRQDSSSTGWNETIVENLLANVYHQINHLKTVLEEKLEKEDFTRGKLMSSLHLKRYYGRILHYLKAKEYSHCAWTIVRVEILRNFYFINRLTGYLRN
effect of type I IFN on hfRPE proliferation: no effect
